Screens: PubChem BioAssay, National Center for Advancing Translational Sciences (NCATS)
ERG-DNA inh: inhibitors of human ERG Ets domain-DNA interaction. fluorescence polarization, His-ERG Ets domain / labelled DNA. AID 624246. Potency, µM (series often up to 76.9 µM), for the others: top-dose FP activity, negative = inhibition, usual class: inhibitors. actives 0.028% (n = 370,000); active = well fitted inhibition curve with a large enough effect in the polarisation, with a control signal flat; inconclusive = small, poorly fitted or top-dose-only effect, or effect the other way, or a change in a side signal; inactive = no such curve, though single readings can be large or run the other way; the % refers to the polarisation;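 note: polarization taken with two DNA probes labelled with fluorescein and Texas red; potency is the fitted concentration of half-maximal effect; % of control where 0% means no effect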
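His-tagged ERG Ets domain (1 uM in the protein solution; 300mM KCl, 50mM Tris-HCl, 1mM EDTA, 1mM DTT, pH 7.5) received compound, then a probe mix of 5 nM fluorescein-DNA and 100nM Texas-615-DNA. Fluorescence polarization was read for both dyes.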
PTHR1 ag: activates the human parathyroid hormone receptor PTHR1; actives 0.075% (n = 410,000); Potency, µM (highest dose often 115 µM), inactives show at the highest dose activation, usual class: activators; Q03431; HEK293 GP2 PTHR1 cells, GloSensor cAMP luminescence, 1 h; note: potency is the fitted concentration of half-maximal effect; nearly all actives have a fitted effect of over 55% in size
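HEK-293-derived GP2 cells expressing PTHR1 and a GloSensor cAMP reporter, 3,000/well, plated overnight, given luciferin plus IBMX (each 0.5 mM as added) for 1 h at 37 °C, then compound for 1 h at 37 °C. Luminescence was read after 15 min at room temperature.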
miR-21 FLuc: miR-21 reporter, rising signal. HeLa miR-21 FLuc reporter, luciferase, 48 h. Potency, µM (titrated, usually from 38.3 µM), without a hit: at the top dose reporter change, positive = more light. 340,000 tested, under 10 active. AID 2288; active = well fitted rising curve with a large enough effect; inconclusive = small, poorly fitted or top-dose-only effect; inactive = no such curve, though single readings can be large or run the other way;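 also: % of control where 0% means no effect; miR-21 action dims this reporter so a rising signal means less miR-21 action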
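Compounds were titrated across several concentrations (up to approximately 40 uM) and incubated 48 hours with HeLa miR-21-FLuc reporter cells (miR-21 target sequence downstream of FLuc, endogenous miR-21). Readout was firefly luciferase luminescence after lytic detection reagent.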
ALOX12 inh: blocks human arachidonate 12S-lipoxygenase. Potency, µM (titrated, usually from 108 µM), inactives show at the highest dose activity change, negative = inhibition, hits mostly inhibitors. purified 12hLO, xylenol orange hydroperoxide absorbance. P18054. actives 1.1% (n = 580,000); note: potency is the fitted concentration of half-maximal effect; % is set by controls: 0 for no effect and ±100 for the full control effect
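Hydroperoxide product was detected by ferrous iron/xylenol orange as the 573 to 405 nm absorbance ratio. Arachidonic acid at 40 uM (final) was turned over for 30 min at room temperature by 150 nM human 12hLO, pH 7.0 Hepes buffer, after 15 min compound preincubation.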
Giardia kill: kills Giardia lamblia; Giardia lamblia trophozoite viability; activity change, % at 7.66 µM, hits read low; AID 540267; actives 0.15% (n = 340,000); in the data active = activity change below about -80%; inconclusive = between about -30% and that limit;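 note: parasites exposed to compound for two days anaerobically before the ATP read; % is set by controls: 0 for no effect and ±100 for the full control effect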
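Each well holds 100 Giardia trophozoites and compound. After two days (48 hrs) at 37 deg C in anaerobic conditions, ATP is quantified by luminescence.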
PINK1 expr mod: PINK1 expression modulation; PINK1 immunofluorescence, high-content cytometry, 24 h; Potency, µM (highest dose often 76.6 µM), inactives show at the highest dose activation (PINK1 increase), usual class: activators; actives 0.2% (n = 410,000); AID 624263; active = well fitted activation curve with a large enough effect; inconclusive = small, poorly fitted or top-dose-only effect; cell line not stated here; note: potency is the fitted concentration of half-maximal effect; % of control where 0% means no effect; nearly all actives have a fitted effect of over 65% in size
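A stable cell line was treated with compounds at 5 concentrations for 24 hours, with CCCP as control. PINK1 levels and mitochondrial localization were measured by immunofluorescence with mitochondrial, cell and nuclear markers after fixation, read by laser-scanning cytometry.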
The depositor's hits bear a star; i = inactive; ? = inconclusive; . = not tested or not shown; ! = a repeat was not active; [ ] = dose if it differs, or a comment. A selection: hits, their analogues and other compounds. The true share with any hit is near 1.3%. Unless noted, calls come from the whole dose curve; as a rule, active = well fitted curve in the direction sought with a large enough effect; inconclusive = small, poorly fitted or top-dose-only effect, or another doubt; inactive = no such curve, though single readings can be large; an effect the other way counts as inactive or inconclusive.

Order of values: ERG-DNA inh	PTHR1 ag	miR-21 FLuc	ALOX12 inh	Giardia kill	PINK1 expr mod
COc1ccc(/C=C/C(=O)c2cc3c(cc2N)OCO3)cc1
→ 3.0%	-29.8%	-35.7%	35.5µM*	-15.3	2.5%
CCOc1ccc(NC(=O)Cn2sc3nc(C)cc(C)c3c2=O)cc1
→ -8.7%	-9.6%	2.1%	.	10.1	3.6%
Cc1cc(C)c2c(=O)n(CC(=O)Nc3ccc(Cl)cc3)sc2n1
→ -3.0%	-13.7%	18.9%	1.26µM*	11.3	1.2%
Cc1ccc(NC(=O)Cn2sc3nc(C)cc(C)c3c2=O)c(Cl)c1
→ -1.5%	i	-0.3%	2µM*	34.0	0.3%
Cc1cc(C)c2c(=O)n(CC(=O)Nc3cccc(F)c3)sc2n1
→ -4.1%	i	28.7%	?	-16.2	-1.0%
COc1cccc2c1CCC1CC(=O)CC[C@@]21C (stereo not given in full)
→ .	.	.	.	.	-0.1%
COc1ccc(C(=O)NCC(=O)N2CCCCCNC(=O)CC2c2ccccc2)c(OC)n1 (stereo not given)
→ .	.	.	22.7%	.	.
CCc1noc(C)c1C(=O)N(C)CC(=O)Nc1ccc(Cl)c(Cl)c1
→ -3.5%	i	.	-27.9%	-9.4	17.6%
O=C1COc2ccc(-c3csc(NCC4CCCO4)n3)cc2N1 (stereo not given)
→ -8.6%	-27.0%	-24.7%	44.7µM*	3.3	2.8%
O=S(=O)(Nc1cccc(Cl)c1)c1ccc2oc(=S)[nH]c2c1
→ 11.2%	-41.7%	-8.0%	?	11.5	0.5%
Cc1noc(C)c1C(=O)OCC(=O)Nc1ccc(N2CCOCC2)cc1
→ 2.7%	17.8µM*	.	?	-2.0	-0.1%
CCOC(=O)Cn1c(=O)n(Cc2ccco2)c(=O)c2ccc(C(=O)NCCc3ccccc3)cc21
→ -8.3%	-11.1%	2.3%	-0.6%	3.0	-1.7%
Oc1ccc(C2C(c3ccccc3)=NN=C(c3ccccc3F)N2O)c(O)c1 (stereo not given)
→ -2.6%	-11.7%	-26.5%	-26.9%	20.8	0.8%
Oc1ccc(C2C(c3ccccc3)=NN=C(c3ccc(Cl)cc3)N2O)c(O)c1 (stereo not given)
→ .	-30.6%	-15.4%	31.6µM*	19.6	27.4%
CC(=O)Nc1cccc(C(=O)OCc2ccc([N+](=O)[O-])cc2)c1
→ 7.0%	-3.6%	-9.1%	-14.9%	-7.4	0.9%
CCC(=O)Nc1cccc(C(=O)OCc2cccc([N+](=O)[O-])c2)c1
→ 7.08µM*	-57.0%	-2.4%	-7.0%	-12.0	2.6%
O=C(Cc1cccs1)N/N=C\c1ccc([N+](=O)[O-])s1
→ 15.9%	-24.5%	20.5%	-4.4%	-85.0*	?
Cc1cc(F)ccc1S(=O)(=O)Nc1ccccc1C(=O)Nc1ccccc1-c1nc2ccccc2[nH]1
→ -2.8%	-32.0%	?	.	-8.8	44.7µM*
Cc1cc(F)ccc1S(=O)(=O)Nc1ccccc1C(=O)Nc1ncn[nH]1
→ -12.6%	-11.1%[57.5 µM]	-7.0%	9.5%	-7.9	1.8%
CCC(C)(C)C1CCc2c(sc(N)c2C#N)C1 (stereo not given)
→ .	.	.	28.2µM*	.	.
COc1cccc(CN(C)CCCn2cnc3c(OC)ncnc32)c1
→ .	i	.	?	.	1.9%
CCN(CC)S(=O)(=O)c1cccc(C(=O)Nc2ccc(S(=O)(=O)NC3=NCCCCC3)cc2)c1
→ -6.8%	-76.6%	.	50.1µM*	-3.6	-0.1%
O=C1NCCCCCN(C(=O)C2CCC2)[C@@H]2C[C@@H](C(=O)N3CCc4ccccc4C3)C[C@H]12
→ .	.	.	32.7%	.	.
CC(C)CC1Nc2ncnc(N3CCOCC3)c2N(Cc2ccccc2)C1=O (stereo not given)
→ -2.2%	-18.3%	.	?	4.0	0.2%
CC(C)CC1Nc2ncnc(N3CCOCC3)c2N(Cc2ccc(Cl)cc2)C1=O (stereo not given)
→ 11.9%	-0.7%	.	7.94µM*!	21.8	1.0%
O=C1/C(=C\c2ccco2)NC(=S)N1c1ccccc1
→ 39.5%	-50.0%	-21.0%	15.8µM*	0.4	-2.8%

Complete entries, looked up by structure.
`O=C1/C(=C\c2ccco2)NC(=S)N1c1ccccc1` across the screens: ERG-DNA inh = 39.5%; PTHR1 ag = -50.0%; miR-21 FLuc = -21.0%; ALOX12 inh = 15.8µM*; Giardia kill = 0.4; PINK1 expr mod = -2.8%
`CC(C)CC1Nc2ncnc(N3CCOCC3)c2N(Cc2ccc(Cl)cc2)C1=O` (stereo not given) across the screens: ERG-DNA inh = 11.9%; PTHR1 ag = -0.7%; miR-21 FLuc = .; ALOX12 inh = 7.94µM*!; Giardia kill = 21.8; PINK1 expr mod = 1.0%
